Values of other authors in PubChem BioAssay AID977611.

Legend:
Assay in all cases: PubChem AID 977611
[1] = target: Macrophage metalloelastase(F171D); conditions: PDB protein-ligand complexes, literature Kd; protein: Macrophage metalloelastase(F171D); PDB entry 1RMZ
[2] = target: macrophage metalloelastase (mmp-12); conditions: PDB protein-ligand complexes, literature Kd; protein: macrophage metalloelastase (mmp-12); PDB entry 1Z3J
[3] = target: glutamate receptor, ionotropic kainate 1; conditions: PDB protein-ligand complexes, literature Kd; protein: glutamate receptor, ionotropic kainate 1; PDB entry 2F34
[4] = target: STEROID DELTA-ISOMERASE(P39A); conditions: PDB protein-ligand complexes, literature Kd; protein: STEROID DELTA-ISOMERASE(P39A); PDB entry 1OGZ
shikimate kinase = conditions: PDB protein-ligand complexes, literature Kd; protein: shikimate kinase; PDB entry 1WE2
H.HALOPHILA DODECIN = conditions: PDB protein-ligand complexes, literature Kd; protein: H.HALOPHILA DODECIN; PDB entry 2VXA
[5] = target: 6,7-dimethyl-8-ribityllumazine synthase; conditions: PDB protein-ligand complexes, literature Kd; protein: 6,7-dimethyl-8-ribityllumazine synthase; PDB entry 1KYV
[6] = target: immunoglobulin igg1 lambda light chain; conditions: PDB protein-ligand complexes, literature Kd; protein: immunoglobulin igg1 lambda light chain; PDB entry 2FL5
[7] = target: H. SALINARUM DODECIN E45A MUTANT; conditions: PDB protein-ligand complexes, literature Kd; protein: H. SALINARUM DODECIN E45A MUTANT; PDB entry 2VX9
apolipoprotein = conditions: PDB protein-ligand complexes, literature Kd; protein: apolipoprotein; PDB entry 3KIV
adam 17 = conditions: PDB protein-ligand complexes, literature Kd; protein: adam 17; PDB entry 2FV5
[8] = target: adenine-n6-dna-methyltransferase taqi; conditions: PDB protein-ligand complexes, literature Kd; protein: adenine-n6-dna-methyltransferase taqi; PDB entry 1AQJ
[9] = target: ribulose-1,5 bisphosphate carboxylase/oxygenase; conditions: PDB protein-ligand complexes, literature Kd; protein: ribulose-1,5 bisphosphate carboxylase/oxygenase; PDB entry 2H2J
[10] = target: interferon-inducible gtpase; conditions: PDB protein-ligand complexes, literature Kd, protein: interferon-inducible gtpase
elongation factor 2 = conditions: PDB protein-ligand complexes, literature Kd; protein: elongation factor 2; PDB entry 1U2R
[11] = target: elongation factor tu (ef-tu); conditions: PDB protein-ligand complexes, literature Kd; protein: elongation factor tu (ef-tu); PDB entry 1D2E
elongation factor g = conditions: PDB protein-ligand complexes, literature Kd; protein: elongation factor g; PDB entry 1DAR
[12] = target: guanine nucleotide-binding protein g(i), alpha-; conditions: PDB protein-ligand complexes, literature Kd; protein: guanine nucleotide-binding protein g(i), alpha-; PDB entry 2G83
1RYF A = conditions: PDB protein-ligand complexes, literature Kd; PDB entry 1RYF
[13] = target: eukaryotic peptide chain release factor gtp; conditions: PDB protein-ligand complexes, literature Kd; protein: eukaryotic peptide chain release factor gtp; PDB entry 1R5N
[14] = target: adp-ribosylation factor-like protein 3; conditions: PDB protein-ligand complexes, literature Kd; protein: adp-ribosylation factor-like protein 3; PDB entry 1FZQ
Mevalonate kinase = conditions: PDB protein-ligand complexes, literature Kd; protein: Mevalonate kinase; PDB entry 2OI2
[15] = target: calmodulin-sensitive adenylate cyclase; conditions: PDB protein-ligand complexes, literature Kd; protein: calmodulin-sensitive adenylate cyclase; PDB entry 1XFV

## COc1ccc(S(=O)(=O)N(CC(=O)NO)CC(C)C)cc1
[1]
  Kd: 10 nM
[2]
  Kd: 10 nM

## Cc1cn(C[C@H](N)C(=O)O)c(=O)n(Cc2ccsc2C(=O)O)c1=O
[3]
  Kd: 130 nM

## C[C@]12CCc3c(ccc4cc(O)ccc34)[C@@H]1CCC2=O
[4]
  Kd: 1400 nM

## O=C(O)C1=C[C@@H](O)[C@@H](O)[C@H](O)C1
Shikimate kinase
  Kd: 44000 nM

## Cc1cc2nc3c(=O)[nH]c(=O)nc-3n(C[C@H](O)[C@H](O)[C@H](O)CO)c2cc1C
H.HALOPHILA DODECIN
  Kd: 2500 nM
[5]
  Kd: 1200 nM
[6]
  Kd: 1.8 nM
[7]
  Kd: 36 nM

## NCCCCCC(=O)O
apolipoprotein
  Kd: 20000 nM

## Cc1cc(COc2ccc([C@]3(C)CCN([C@H](C)C(=O)NO)C3=O)cc2)c2ccccc2n1
Adam 17
  Kd: < 0.002 nM

## Nc1ncnc2c1ncn2[C@@H]1O[C@H](C[C@@H](N)CC[C@H](N)C(=O)O)[C@@H](O)[C@H]1O
[8]
  Kd: 340 nM
[9]
  Kd: 4200 nM

## Nc1nc2c(ncn2[C@@H]2O[C@H](COP(=O)(O)OP(=O)(O)O)[C@@H](O)[C@H]2O)c(=O)[nH]1
[10]; PDB entry 1TPZ
  Kd: 640 nM
[10]; PDB entry 1TQ4
  Kd: 640 nM
Elongation factor 2
  Kd: 3900 nM
[11]
  Kd: 1000 nM
Elongation factor g
  Kd: 11000 nM
[12]
  Kd: 1200 nM
1RYF A
  Kd: 1.6 nM
[13]
  Kd: 3800 nM
[14]
  Kd: 24 nM

## C[C@@](O)(CCOP(=O)(O)OP(=O)(O)O)CC(=O)O
Mevalonate kinase
  Kd: 500 nM

## Nc1ncnc2c1ncn2[C@@H]1O[C@H](COP(=O)(O)OP(=O)(O)OP(=O)(O)O)C[C@H]1O
[15]
  Kd: 130000 nM
